# PubChem BioAssay AID602429 (Sanford-Burnham Center for Chemical Genomics, 2012)
# By UniProt entry, the sequences of proteins in these tests, tags left out.
# UniProt P63165, whole entry: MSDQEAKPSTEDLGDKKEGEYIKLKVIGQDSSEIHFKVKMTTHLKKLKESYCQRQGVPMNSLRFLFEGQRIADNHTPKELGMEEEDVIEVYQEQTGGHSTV
# The entries are a selection whose mix differs from that of the whole data set. Some structures show a salt or complex split into parts, the way the source records it. The source made the active and inactive calls. No stated cut-off is given here; in the data, active means inhibition above about 37%; inactive means the rest.
# Target: Small ubiquitin-related modifier 1 (Homo sapiens) (UniProt P63165)
# Assay: modulators of SUMO1 protein-protein interactions, primary screen, biochemical, uHTS (AID 602429)
# Conditions: SUMO1 binding to a labelled peptide, TR-FRET, 1 h; at 20 µM; stronger effect = higher value
row,SMILES,inhibition
1,O=C1C(O)=C([N+](=O)[O-])C(=O)C(O)=C1[N+](=O)[O-],inactive: 12.4%
2,Cc1cc(C)cc(OP(C)(=O)Nc2cccc(C(F)(F)F)c2)c1 (centres undefined),inactive: 1.37%
3,COc1ccccc1OP(C)(=O)Nc1ccc(C)c(C)c1 (centres undefined),inactive: 3.64%
4,COc1ccc(OP(C)(=O)Nc2ccccc2Br)cc1 (centres undefined),inactive: -2.63%
5,CP(=O)(Nc1ccc(Cl)cc1Cl)Oc1ccccc1 (centres undefined),inactive: 2.2%
6,CCCCCCCCCCCCCCCC1C[N+](C)(C)CCOP(C)(=O)O1 (centres undefined),inactive: -185%
7,CP(=O)(OCCOc1ccccc1)OCCOc1ccccc1,inactive: -3.23%
8,COc1ccccc1OP(C)(=O)Nc1ccc(Br)cc1 (centres undefined),inactive: -1.18%
9,COc1ccc(OP(C)(=O)Nc2ccccn2)cc1 (centres undefined),inactive: -2.89%
10,CN(C)CCOC(=O)C(O)(c1ccccc1)C1CCCC1 (centres undefined),inactive: 6.24%
11,Cc1c(NP(C)(=O)Oc2ccc(C(C)C)cc2)c(=O)n(-c2ccccc2)n1C (centres undefined),inactive: 1.33%
12,O=[N+]([O-])c1cc([N+](=O)[O-])c(Nc2ccccn2)c([N+](=O)[O-])c1,inactive: -22.4%
13,CP(=O)(Nc1ccccn1)Oc1ccccc1 (centres undefined),inactive: -0.145%
14,COc1ccccc1OP(C)(=O)Nc1ccc(C)cc1C (centres undefined),inactive: 3.08%
15,CCc1ccc(OP(C)(=O)O)cc1,inactive: -5.75%
16,CCN(CC)CC(O)COC(=O)C(O)(c1ccccc1)C1CCCCC1 (centres undefined),inactive: -1.11%
17,COc1ccc(OP(C)(=O)Nc2ccc(Br)cc2)cc1 (centres undefined),inactive: 1.18%
18,COc1ccccc1OP(C)(=O)Nc1c(C)n(C)n(-c2ccccc2)c1=O (centres undefined),inactive: 1.57%
19,O=C(OCCCN1CCCC1)C(O)(c1ccccc1)C1CCCCC1 (centres undefined),inactive: 1.42%
20,CP(=O)(Oc1ccccc1)N1CCOC1=O (centres undefined),inactive: 0.188%
21,CCc1ccc(OP(C)(=O)Nc2cccnc2)cc1 (centres undefined),inactive: 1.96%
22,COc1ccccc1OP(C)(=O)Nc1ccccc1Br (centres undefined),inactive: -2.25%
23,CC(C)(C)c1ccc(OP(C)(=O)O)cc1,inactive: -0.578%
24,CP(=O)(Nc1ccc(Cl)cc1)Oc1ccc(F)cc1 (centres undefined),inactive: 1.04%
25,CN(C)C(=O)c1c([N+](=O)[O-])cc([N+](=O)[O-])cc1[N+](=O)[O-],inactive: -23.7%

row,SMILES,inhibition
1,CCOC(=O)c1ccc(NP(C)(=O)Oc2ccc(Cl)cc2)cc1 (centres undefined),inactive: 0.246%
2,CP(=O)(OC12CC3CC(CC(C3)C1)C2)OC12CC3CC(CC(C3)C1)C2,inactive: 0.951%
3,COc1ccc(OP(C)(=O)Nc2cccc(Br)c2)cc1 (centres undefined),inactive: -4.91%
4,CN(C)CCOC(=O)C(O)(c1ccccc1)C1CCCCC1 (centres undefined),inactive: 1.53%
5,COc1ccc(NP(C)(=O)Oc2ccccc2OC)cc1 (centres undefined),inactive: 3.21%
6,O=[N+]([O-])c1ccc(OP2(=O)COCCO2)cc1 (centres undefined),inactive: -19.1%
7,Cc1cc(-c2cccc3ccccc23)c(C)cn1.O=[N+]([O-])c1cc([N+](=O)[O-])c(O)c([N+](=O)[O-])c1,inactive: -23%
8,O=[N+]([O-])c1cc([N+](=O)[O-])c(NCC2CCS(=O)(=O)C2)c([N+](=O)[O-])c1 (centres undefined),inactive: -19.9%
9,Cc1c(C(c2ccc3c(c2)OCO3)c2c(C)n(C)n(-c3ccccc3)c2=O)c(=O)n(-c2ccccc2)n1C.O=[N+]([O-])c1cc([N+](=O)[O-])c(O)c([N+](=O)[O-])c1,inactive: -1.71%
10,CP(=O)(Nc1ccc(SC(F)(F)F)cc1)Oc1ccc(F)cc1 (centres undefined),inactive: -3.48%
11,CCOP(C)(=S)SCC(=O)NC(C)(CC)C(=O)O (centres undefined),inactive: -2.11%
12,CP(=O)(Nc1ccc2c(c1)OCCO2)Oc1ccccc1 (centres undefined),inactive: 6.32%
13,Cc1ccccc1NP(C)(=O)Nc1ccccc1C,inactive: 1.78%
14,O=[N+]([O-])c1cc([N+](=O)[O-])c(C(F)(F)F)c([N+](=O)[O-])c1O,inactive: -16.8%
15,O=[N+]([O-])c1cc([N+](=O)[O-])c(Nc2ccc(Cl)cc2)c([N+](=O)[O-])c1,inactive: -35%
16,CP(=O)(Nc1ccccc1F)Oc1ccccc1 (centres undefined),inactive: -3.24%
17,CC(C)c1ccc(OP(C)(=O)Nc2ccc(SC(F)(F)F)cc2)cc1 (centres undefined),inactive: 2.65%
18,O=C(OC1CN2CCC1CC2)c1ccc([N+](=O)[O-])cc1 (centres undefined),inactive: -46.9%
19,O=C(OCCN1CCN(CCOCc2ccccc2)CC1)C(O)(c1ccccc1)c1ccccc1,inactive: -3.21%
20,COc1ccc2c(c1O)-c1c(O)c(OC)cc3c1[C@H](C2)[N+](C)(C)CC3.O=[N+]([O-])c1cc([N+](=O)[O-])c([O-])c([N+](=O)[O-])c1[O-],inactive: -14.3%
21,CCN(CC)CCCNc1ccccc1[N+](=O)[O-].O=[N+]([O-])c1cc([N+](=O)[O-])c(O)c([N+](=O)[O-])c1,inactive: -38.9%
22,CCOC(=O)c1ccc(NP(C)(=O)Oc2ccc(F)cc2)cc1 (centres undefined),inactive: -0.142%
23,COc1ccc(OP(C)(=O)Nc2ccc(SC(F)(F)F)cc2)cc1 (centres undefined),inactive: -3.81%
24,Cc1c([N+](=O)[O-])cc([N+](=O)[O-])c(Br)c1[N+](=O)[O-],inactive: -19.4%
25,CCN(CC)CCCOC(=O)C(O)(c1ccccc1)C1CCCCC1 (centres undefined),inactive: 3.02%

row,SMILES,inhibition
1,CP(=O)(Nc1ccccc1)Oc1ccc(F)cc1 (centres undefined),inactive: -0.749%
2,O=[N+]([O-])c1cc([N+](=O)[O-])c(OC2CCCCC2O)c([N+](=O)[O-])c1 (centres undefined),inactive: -20.3%
3,CCCCCOc1ccc(NP(C)(=O)Oc2ccc(Cl)cc2Cl)cc1 (centres undefined),inactive: 5.68%
4,O=C(O)c1cccc(Nc2c([N+](=O)[O-])cc([N+](=O)[O-])cc2[N+](=O)[O-])c1,inactive: -24.6%
5,CC1=NCCc2c1[nH]c1ccccc21.O=[N+]([O-])c1cc([N+](=O)[O-])c(O)c([N+](=O)[O-])c1,inactive: -20.6%
6,COc1ccccc1OP(C)(=O)Nc1cccc(Br)c1 (centres undefined),inactive: 2.48%
7,CCOC(=O)c1ccc(NP(C)(=O)Oc2cc(C)cc(C)c2)cc1 (centres undefined),inactive: 2.08%
8,Cc1cc(C)cc(OP(C)(=O)Nc2ccc(C)cc2C)c1 (centres undefined),inactive: -1.73%
9,Cc1ccc(C)c(NP(C)(=O)Oc2ccccc2)c1 (centres undefined),inactive: -3.67%
10,Cc1cc(C)cc(OP(C)(=O)Nc2ccccn2)c1 (centres undefined),inactive: -1.23%
11,CP(=O)(Nc1cccc(Br)c1)Oc1ccccc1 (centres undefined),inactive: 32.8%
12,O=[N+]([O-])c1cc([N+](=O)[O-])c(-n2nnc3ccccc32)c([N+](=O)[O-])c1,inactive: -21.8%
13,CN(Cc1cccnc1)C(=O)COc1ccc(Cl)c(Cl)c1.O=[N+]([O-])c1cc([N+](=O)[O-])c(O)c([N+](=O)[O-])c1,inactive: -17.9%
14,O=[N+]([O-])c1cc([N+](=O)[O-])c(-c2cnn(-c3ccccc3)c2)c([N+](=O)[O-])c1,inactive: -29.1%
15,Cc1nc2ccc3ccccc3c2s1.O=[N+]([O-])c1cc([N+](=O)[O-])c(O)c([N+](=O)[O-])c1,inactive: -20.4%
16,CC1=C2N=C(C=C3N=C(C(C)=C4[N-][C@@](C)([C@@H]5N=C1[C@](C)(CCC(=O)NC[C@@H](C)OP(=O)([O-])O[C@H]1[C@@H](O)[C@@H](n6cnc7cc(C)c(C)cc76)O[C@@H]1CO)[C@H]5CC(N)=O)[C@@](C)(CC(N)=O)[C@@H]4CCC(N)=O)[C@@](C)(CC(N)=O)[C@@H]3CCC(N)=O)C(C)(C)[C@@H]2CCC(N)=O.[C-]#N.[Co+3],inactive: 3.55%
17,O=[N+]([O-])c1cc([N+](=O)[O-])c(Nc2nnnn2CCO)c([N+](=O)[O-])c1,inactive: -35.3%
18,CCOC(=O)C(CC)C1=NC(C)(C)Cc2ccccc21.O=[N+]([O-])c1cc([N+](=O)[O-])c(O)c([N+](=O)[O-])c1 (centres undefined),inactive: -26.2%
19,COc1ccccc1OP(C)(=O)Nc1c(C)cccc1C (centres undefined),inactive: -1.84%
20,CN1CCCCC1COC(=O)C1(O)c2ccccc2CCc2ccccc21 (centres undefined),inactive: -0.899%
21,COc1ccc(-c2ccccn2)cc1.O=[N+]([O-])c1cc([N+](=O)[O-])c(O)c([N+](=O)[O-])c1,inactive: -13.4%
22,CCCOc1ccc(NP(C)(=O)Oc2ccc(Cl)cc2)cc1 (centres undefined),inactive: 1.74%
23,CP(=O)(Nc1ccc(SC(F)(F)F)cc1)Oc1ccccc1 (centres undefined),inactive: 2.22%
24,CP(=S)(Nn1cnnc1)Oc1ccccc1 (centres undefined),inactive: -0.914%
25,CP(=O)(Nc1ccccc1Br)Oc1ccccc1 (centres undefined),inactive: 2.31%

row,SMILES,inhibition
1,COc1ccccc1OP(C)(=O)Nc1ccccc1 (centres undefined),inactive: -14.8%
2,Cc1ccc(Nc2c([N+](=O)[O-])cc([N+](=O)[O-])cc2[N+](=O)[O-])cc1,inactive: -27.4%
3,Cc1cccc(C)c1OP(C)(=O)Nc1ccc(SC(F)(F)F)cc1 (centres undefined),inactive: -0.542%
4,CP(=O)(Nc1ccc(SC(F)(F)F)cc1)Oc1ccc(Cl)cc1 (centres undefined),inactive: 8.82%
5,CP(=O)(Oc1ccccc1)OC(c1ccccc1)C(F)(F)F (centres undefined),inactive: -1.77%
6,CP(=O)(NC(=O)Nc1ccccc1)Oc1ccccc1 (centres undefined),inactive: -2.42%
7,CCc1ccc(OP(C)(=O)N2CCN(c3ccc([N+](=O)[O-])cc3)CC2)cc1 (centres undefined),inactive: -28.9%
8,Cc1cc(C)cc(OP(C)(=O)Nc2ccc(SC(F)(F)F)cc2)c1 (centres undefined),inactive: -2.6%
9,CCOC(=O)c1ccc(NP(C)(=O)Oc2ccc(OC)cc2)cc1 (centres undefined),inactive: 1.71%
10,O=[N+]([O-])c1cc([N+](=O)[O-])c(O)c([N+](=O)[O-])c1.c1ccc(Oc2ccncc2)cc1,inactive: -26.7%
11,CCOP(C)(=S)SCC(=O)NC(C)C(=O)O (centres undefined),inactive: 1.36%
12,CP(=O)(Nc1ccccn1)Oc1ccc(Cl)cc1 (centres undefined),inactive: 1.26%
13,CCN(CC)CCCOC(=O)C(O)(c1ccccc1)c1ccccc1,inactive: 1.14%
14,COc1ccccc1-c1ccccn1.O=[N+]([O-])c1cc([N+](=O)[O-])c(O)c([N+](=O)[O-])c1,inactive: -20.2%
15,O=[N+]([O-])c1cc([N+](=O)[O-])c(Nc2cccnc2)c([N+](=O)[O-])c1,inactive: -37.2%
16,O=[N+]([O-])c1ccc2c(c1)C=Nc1ccccc1O2,inactive: -21.9%
17,CC(C)(C)c1ccc(OP(C)(=O)Nc2ccc(SC(F)(F)F)cc2)cc1 (centres undefined),inactive: 0.458%
18,Cc1cccc(C)c1OP(C)(N)=O (centres undefined),inactive: -2.76%
19,COc1ccccc1OP(C)(=O)Nc1ccc(C)cc1 (centres undefined),inactive: -2.59%
20,Cc1ccc(NP(C)(=O)Oc2ccccc2)c(C)c1 (centres undefined),inactive: -0.763%
21,CCOC(=O)c1ccc(NP(C)(=O)Oc2ccccc2)cc1 (centres undefined),inactive: -0.519%
22,Cc1cc(C)cc(OP(C)(N)=O)c1 (centres undefined),inactive: -1.45%
23,COc1ccccc1OP(C)(=O)Nc1cc(Cl)ccc1C (centres undefined),inactive: -1.57%
24,COc1ccc(OP(C)(=O)Nc2cccc(F)c2)cc1 (centres undefined),inactive: -0.598%
